Screening results as filed in PubChem BioAssay.
Nrf2 block: Nrf2 pathway inhibition | A549 ARE-Fluc reporter, luciferase luminescence, 18-24 h | Potency, µM (titrated, usually from 46 µM), usual class: inhibitors | 360,000 tested, 2.1% active; further: nearly all actives have a fitted effect of over 60% in size
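Concentration-response testing used A549 ARE_Fluc cells at 5000 cells/well. Following an 18-24 h compound incubation, viability was read by fluorescence (Ex 405/Em 525) and luciferase output by luminescence.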
miR-21 reporter: raises the signal of a miR-21 reporter. Potency, µM (highest dose often 38.3 µM). 340,000 tested, under 10 active. HeLa miR-21 FLuc reporter, luciferase, 48 h; active = well fitted rising curve with a large enough effect; inconclusive = small, poorly fitted or top-dose-only effect; inactive = no such curve, though single readings can be large or run the other way;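 further: miR-21 action dims this reporter so a rising signal means less miR-21 action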
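HeLa miR-21-FLuc reporter line, endogenous miR-21; 2000 cells/well in DMEM/10% FBS; compound titration up to ~40uM final, 48 h, 37 degree Celsius; luciferase detection reagent, 15 min lysis, CCD luminescence.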
ClpP mod: qHTS Assay for Activators of ClpP | ATP-dependent Clp protease proteolytic subunit (Bacillus subtilis (strain 168)), P80244 | purified B. subtilis ClpP, FRET peptide cleavage, 20 min | Potency, µM (top dose mostly 57.5 µM) | 340,000 tested, 1.9% active | AID 651965, 2013; active means well fitted falling curve with a large enough effect; inconclusive means small, poorly fitted or top-dose-only effect; inactive means no such curve, though single readings can be large or run the other way; further: the source files actives as falling curves though it sought activators and does not explain the sign; nearly all actives have a fitted effect of over 65% in size
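ClpP 10 microg/mL final, pH 8 Tris/KCl buffer with BSA, glycerol, Tween-20; compound pinned in; FRET-FV substrate; RT 20 min; Ex320/Em430; ΔFRET vs ADEP 5.8 microM, DMSO, no enzyme.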
A549 tox: A549 cytotoxicity, counter-screen for Nrf2 inhibitors; A549 ARE-Fluc cells, CellTiter-Fluor viability, 18-24 h; 390,000 tested, 0.16% active; Potency, µM (titrated, usually from 46 µM), most hits filed as inhibitors
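A549 ARE-Fluc cells in 5% FBS OPTI-MEM, 5000 cells/well, rested 2 h then exposed to compounds in concentration-response for 18-24 h at 37 °C. Viability by CellTiter-Fluor fluorescence (Ex 405/Em 525) after 30 min; luciferase luminescence (BugLite, 15 min, RT) read afterwards.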
IL-2 act: IL-2 activation | IL-2 activation reporter assay, cell-based qHTS; stimulated with anti-CD3/CD4/CD28 beads; in transgenic mouse T cells | activation, % (series mostly up to about 46 µM) | 360,000 tested, 0.065% active | AID 652025; in the data active means activation above about 50%; inconclusive means mostly about 30% to 49%
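Unstimulated transgenic mouse T cells, 750 per well, received compound and, after 60 minutes, anti-CD3/anti-CD4 bead plus anti-CD28 stimulation. EGFP and DsRed were quantified after 18 hours.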
Nrf2 activator: activators of Nrf2 (ARE) signaling. AREc32 ARE-luciferase reporter (MCF7-derived line), luminescence, 24 h. Potency, µM (series often up to 46.1 µM), actives largely listed as activators. 410,000 tested, 0.31% active. AID 624171; further: nearly all actives have a fitted effect of over 65% in size
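Luciferase luminescence (Steady-Glo, 30 min at room temperature) served as the read-out of ARE activation in AREc32 cells treated with compounds for 24 hr at 37 deg C.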
A number is an active result; [ ] = another dose, or the depositor's remark. Sampled rows, rich in hits. Any-hit rate of the full collection: about 3.7%. Unless noted, the call rests on the fitted dose curve; in most records, active means well fitted curve in the direction sought with a large enough effect; inconclusive means small, poorly fitted or top-dose-only effect, or another doubt; inactive means no such curve, though single readings can be large; an effect the other way counts as inactive or inconclusive.

For Cc1c(-n2cc(C(=O)O)c(=O)c3cc(F)c(N4CCCC(O)C4)c(F)c32)c(=O)n(-c2ccccc2)n1C (stereo unspecified) the results were Nrf2 block inconclusive, miR-21 reporter inactive, ClpP mod 10µM, A549 tox inactive, IL-2 act inactive and Nrf2 activator inactive.
C[C@@H]1C[C@H]2[C@@H]3C[C@H](F)C4=CC(=O)C=C[C@]4(C)[C@@]3(Cl)[C@@H](O)C[C@]2(C)[C@H]1C(=O)COC(=O)C(C)(C)C was read as Nrf2 block 0.0065µM, ClpP mod inactive, A549 tox inactive, IL-2 act inactive and Nrf2 activator inactive.
CC(=O)c1ccc(NC(=O)CSc2nccn2C2CCCC2)cc1 was read as miR-21 reporter inactive, ClpP mod inactive, A549 tox inactive and Nrf2 activator inactive.
Screening COC(=O)C1C(=O)C=C(N2CCOCC2)CC1(C)C (stereo unspecified) returned Nrf2 block inactive, miR-21 reporter inactive, ClpP mod 13µM, A549 tox inactive, IL-2 act inactive and Nrf2 activator inactive.
Screening CC1(C)CC(N2CCOCC2)=CC(=S)N1 returned ClpP mod inactive, IL-2 act inactive and Nrf2 activator inactive.
`N#CNC(=Nc1cccc(F)c1)SCc1cccc(F)c1` gave Nrf2 block 23µM, miR-21 reporter inactive, ClpP mod inactive, A549 tox inactive, IL-2 act inactive and Nrf2 activator inactive.
For CN1CCCCc2c1nc1c(c2N)CCCC1 the results were Nrf2 block inactive, miR-21 reporter inactive, ClpP mod 25µM, A549 tox inactive, IL-2 act inactive and Nrf2 activator inactive.
For CCN(Cc1ccccc1)S(=O)(=O)c1ccc(C(=O)N(CCCN(C)C)c2nc3c(C)c(C)ccc3s2)cc1 the results were Nrf2 block 18µM, A549 tox inconclusive, IL-2 act inactive and Nrf2 activator inactive.
Screening Cc1csc(-c2ccc3cc(Cl)cc(Cl)c3n2)n1 returned ClpP mod inconclusive, IL-2 act inactive and Nrf2 activator 2.5µM.
COc1ccc(-c2cn3ccccc3n2)cc1OC was read as Nrf2 block inconclusive, miR-21 reporter inactive, ClpP mod inconclusive, A549 tox inactive, IL-2 act inactive and Nrf2 activator 11µM.
Screening COc1ccc(Br)cc1S(=O)(=O)Nc1cc(-c2cn3ccccc3n2)ccc1C returned Nrf2 block inactive, miR-21 reporter inactive, ClpP mod 18µM, A549 tox inactive and Nrf2 activator inactive.
`COc1ccc(-c2nc(NC(=O)C3CC(=O)N(Cc4ccco4)C3)sc2C)cc1` (stereo unspecified) gave Nrf2 block 23µM, ClpP mod inactive, A549 tox inconclusive, IL-2 act inactive and Nrf2 activator inactive.
For CCOn1c(=O)c(=O)n(OCc2ccccc2)c2ccccc21 the results were miR-21 reporter inactive, ClpP mod inactive, A549 tox inactive, IL-2 act inactive and Nrf2 activator 22µM.
For O=C(CCC(=O)N1CCN(C2CCCCC2)CC1)Nc1nnc(C(F)(F)F)s1 the results were Nrf2 block inactive, miR-21 reporter inactive, ClpP mod 13µM, A549 tox inactive, IL-2 act inactive and Nrf2 activator inactive.
Screening O=C(CCS(=O)(=O)c1nc(-c2cccs2)cc(C(F)(F)F)n1)Nc1ccc(F)c(Cl)c1 returned Nrf2 block inactive[9.27 µM], miR-21 reporter inconclusive, ClpP mod 22µM, A549 tox inconclusive and Nrf2 activator inactive.
`CC(C)c1nnc(NC(=O)CCS(=O)(=O)c2nc(-c3cccs3)cc(C(F)(F)F)n2)s1` gave Nrf2 block 23µM, miR-21 reporter inconclusive, ClpP mod inactive, A549 tox inconclusive, IL-2 act inactive and Nrf2 activator inactive.
For COc1ccc(NC(=O)CCS(=O)(=O)c2nc(-c3cccs3)cc(C(F)(F)F)n2)cc1 the results were Nrf2 block inactive[9.27 µM], miR-21 reporter inconclusive, ClpP mod inactive, A549 tox inactive and Nrf2 activator inactive.
